Drawing on patent US7572793B2, “3-Substituted-4-pyrimidone derivatives” (Mitsubishi Tanabe Pharma Corporation, priority 2001, dated 2009), this text covers IC50 for 1 molecule.

The chains behind the UniProt entries cited, without tags or fusion partners. Residues count along the entry.
UniProt A0A3Q1MT31, 1-419: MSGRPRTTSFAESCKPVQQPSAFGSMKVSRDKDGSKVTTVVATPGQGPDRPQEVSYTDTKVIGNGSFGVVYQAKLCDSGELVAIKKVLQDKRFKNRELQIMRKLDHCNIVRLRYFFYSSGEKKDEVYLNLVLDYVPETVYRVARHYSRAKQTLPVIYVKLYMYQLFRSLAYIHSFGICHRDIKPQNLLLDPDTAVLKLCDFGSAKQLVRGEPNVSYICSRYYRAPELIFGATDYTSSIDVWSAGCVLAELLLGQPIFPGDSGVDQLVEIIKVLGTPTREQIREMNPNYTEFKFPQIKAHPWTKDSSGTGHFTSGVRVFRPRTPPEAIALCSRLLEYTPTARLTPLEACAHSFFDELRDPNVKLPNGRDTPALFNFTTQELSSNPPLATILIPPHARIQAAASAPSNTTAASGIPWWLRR

This test deals with bovine cerebral TPK1 (Bos taurus, UniProt A0A3Q1MT31). As to the kind of experiment: Inhibitory activity against P-GS1 phosphorylation by bovine cerebral TPK1. As to conditions: 41.7 μM [γ-32P]ATP, 25° C., 2 hours, pH 6.5. As for the experimental part:
Inhibitory Activity of the Medicament of the Present Invention Against P-GS1 Phosphorylation by Bovine Cerebral TPK1
A mixture containing 100 mM MES-sodium hydroxide (pH 6.5), 1 mM magnesium acetate, 0.5 mM EGTA, 5 mM β-mercaptoethanol, 0.02% Tween 20, 10% glycerol, 12 μg/ml P-GS1, 41.7 μM [y-^32P] ATP (68 kBq/ml), bovine cerebral TPK1 and a compound shown in Table (a final mixture contained 1.7% DMSO deriving from a solution of a test compound prepared in the presence of 10% DMSO) was used as a reaction system. The phosphorylation was started by adding ATP, and the reaction was conducted at 25° C. for 2 hours, and then stopped by adding 21% perchloric acid on ice cooling. The reaction mixture was centrifuged at 12,000 rpm for 5 minutes and adsorbed on P81 paper (Whatmann), and then the paper was washed four times with 75 mM phosphoric acid, three times with water and once with acetone. The paper was dried, and the residual radioactivity was measured using a liquid scintillation counter. […] PHF formation, and that the medicaments of the present invention are effective for preventive and/or therapeutic treatment of Alzheimer disease and the above-mentioned diseases.

Molecules are shown by their SMILES.

The IC50 is the concentration at which inhibition is half-maximal. Lower therefore signals greater potency in that assay. `Cn1c(N2CCOC(c3ccc(F)c(Br)c3)C2)nc(-c2ccncn2)cc1=O` (stereo not shown): the IC50 is 0.6 nM. That is a sub-nanomolar value.
